Results from article PMC2789237 (Analytical Biochemistry, 2010).

Test system: Nc1nc2c(c(=O)[nH]1)N=C(CNc1ccc(C(=O)N[C@@H](CCC(=O)O)C(=O)O)cc1)CN2
Test: purified protein
Conditions: NADPH

dihydrofolate reductase–thymidylate synthase (TbDHFR-TS) (Trypanosoma brucei brucei)
Km: 7.3 ± 1.5 µM
